AlphaSeq binding of Ab-95 light chain variants to a spike HR2 peptide

Source: Engelhart et al. 2022 (doi:10.1038/s41597-022-01779-4), MIT Lincoln Laboratory and A-Alpha Bio; data file from the FLAb repository.

The target is the same throughout: PDVDLGDISGINAS, from the HR2 region of SARS-CoV-2 spike.

Each scFv is VH, a 15-residue (Gly4Ser)3 linker, VL, as in the parent Ab-95, and differs from it in the CDRs of the light chain only.
VH: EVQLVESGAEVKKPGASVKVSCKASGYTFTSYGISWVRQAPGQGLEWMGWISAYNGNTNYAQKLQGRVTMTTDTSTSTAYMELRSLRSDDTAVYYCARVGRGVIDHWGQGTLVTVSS
VL: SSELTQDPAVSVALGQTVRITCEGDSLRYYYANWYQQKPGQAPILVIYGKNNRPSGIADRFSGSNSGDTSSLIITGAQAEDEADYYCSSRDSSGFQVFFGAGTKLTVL

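The starting antibody came from a phage panning campaign against this peptide. In library AAYL52, one, two or three CDR residues were substituted; doubles and triples were drawn at random. In AlphaSeq, yeast of one mating type display the scFv and yeast of the other type display the target. The frequency of each diploid, read from paired DNA barcodes, reflects how well the two displayed proteins bind. Each replicate has its own calibration line, from reference interactions of the BCL2 family. The assay was run in three technical replicates.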

Variants are written as CDR1, CDR2 and CDR3 of the light chain (limits as in the source). Parent: EGDSLRYYYAN, GKNNRPS, SSRDSSGFQVF. The read-out is the apparent dissociation constant on a log10 scale (nM): the lower, the stronger. "n.d." marks a missing value. The strain was present, yet no cells mated with the target were sequenced in that replicate, which points to weak or no binding.

replicates, log10 nM | CDR-L1 | CDR-L2 | CDR-L3
4.93 n.d. n.d. | EGDSCRYYYAN | GKNNTPS | SSRDSSGFQYF
3.12 n.d. n.d. | EWDSLKYYYAN | GKNNRPS | SSRDSSGWQVF
3.99 3.41 3.25 | EGDSLRMYYAN | GKNNRPS | SSHDSSGFQVF
3.35 3.09 3.55 | EGDSLRYYYSN | GKNGRPS | SSRDSSGAQVF
3.56 2.21 3.09 | YGDSLRYYYAN | GKNNRPS | SSRDTSGHQVF
3.46 3.65 2.65 | EGDSLRYYYAN | GKNARVS | SSRDSMGFQVF
3.15 n.d. 2.75 | EGDSTRYYMAN | GKNNRPS | SSRDSSGTQVF
n.d. 3.95 3.13 | EGDSLVYYYAN | GKNNNPS | SSRDSSGFQVF
2.64 3.11 2.57 | EGDSLEYYYAN | GKNNKPS | SSRDCSGFQVF
2.99 3.87 3.06 | EGDSLRTYYAN | GKNDRPS | SSRDSWGFQVF
2.17 2.38 1.58 | EGDSLRYYYAN | GKNNRVS | SCRDSSGFQVF
4.97 n.d. n.d. | EGDKLRYYYAN | GKNNRPV | SSRDSSGFQVC
n.d. n.d. n.d. | EGDSLRYYYVN | GKYNRPS | SSRDSSVFQVF
n.d. n.d. n.d. | EGDSCRYYYAN | GKNNQPS | RSRDSSGFQVF
3.93 n.d. n.d. | EGDSGRYYYAK | GKENRPS | SSRDSSGFQVF
2.51 2.64 2.98 | EGDSIRYYRAN | GKNNRPD | SSRDSSGFQVF
2.21 2.66 2.23 | EGASLRYYCAN | GKNNRPS | SSRDSSGFQVF
1.82 1.89 1.55 | EGDNLRYRYAN | GVNNRPS | SSRDSSGFQVF
3.70 n.d. 3.19 | EGDSLRYYYAN | GKNNRLS | TSRDSSGFQVF
1.14 1.20 0.90 | EGDSLSYAQAN | GKNNRPS | SSRDSSGFQVF
1.88 1.86 1.62 | EGDSLRYYYAN | GKNNRPS | SSRDSSGFQHR
3.03 3.63 2.98 | EGDSLRSYYAC | GKNNRPS | SARDSSGFQVF
2.22 1.91 2.15 | EGDSLRYYYAN | GKNNRPS | HSRDSHGFVVF
4.85 n.d. n.d. | EGDFARYYYAN | GKNNRHS | SSRDSSGFQVF
4.11 n.d. n.d. | EGDSLWYYYAN | GKNNWPS | SSRQSSGFQVF
3.72 3.95 3.00 | EGDNLRYYYAN | GKNNRPS | NSRDSSHFQVF
n.d. 3.64 n.d. | RGDCLRYYYAN | GKKNRPS | SSRDSSGFQVF
n.d. 4.38 n.d. | EGDSLRYYYAT | GKNNRPW | SSRDSSGFQAF
1.17 0.87 0.34 | EGDSLRYGYAN | GKNNRPS | SSRDSSGFQGY
n.d. n.d. n.d. | EGFSLRRYYLN | GKNNRPS | SSRDSSGFQVF
4.34 n.d. n.d. | EGDSLRYLYAN | YKNNRPS | SSTDSSGFQVF
3.99 n.d. n.d. | EGDSLRYYYAN | GKTNRPS | SSRDSAGFVVF
n.d. 4.27 n.d. | EGYSLRYYYAN | GKNNRPS | DSRDSSGDQVF
n.d. n.d. 3.46 | EWDSLRYYYAN | GKNNRPH | SWRDSSGFQVF
n.d. 3.10 3.25 | EGMSLRYYYAN | GKNNRPR | SSRVSSGFQVF
4.34 n.d. n.d. | EGCSLRKYYAN | GKNNRPS | SSRQSSGFQVF
4.00 4.14 3.33 | EGRSLRYYIAN | GKNNKPS | SSRDSSGFQVF
2.24 2.08 1.83 | QGDSLRYYYAN | GKNNRPR | SSRDSSGFQVH
n.d. n.d. n.d. | EGDSTRYYYAN | GKNNRPS | SSRDSSEFVVF
1.84 1.57 1.19 | EGDSIRYYIWN | GKNNRPS | SSRDSSGFQVF
3.79 4.61 3.65 | EGDSSRYYYAN | GKNNRPS | SMRISSGFQVF
2.77 3.56 3.35 | EGDSLRYYYAN | GKNNRPK | SSRDSSGFQKF
1.90 1.69 1.68 | EGVSLRYYGAN | GKNNRPS | SSRDSSGFQVF
n.d. 5.87 n.d. | EHDSLRAYYHN | GKNNRPS | SSRDSSGFQVF
n.d. 5.54 n.d. | EGDSLRYYYAN | GKNNRPS | HSRKLSGFQVF
2.98 2.96 2.61 | MHDSLRYYYAN | GKNNRPS | SSRDSAGFQVF
3.28 3.26 4.72 | EGQSLRYYYAN | GKYNRPS | SSRRSSGFQVF
3.63 2.64 3.00 | EGDAVRYYYAN | GKNFRPS | SSRDSSGFQVF
5.16 n.d. n.d. | EGDSLRYSYAN | GKNNRPS | SSRPSSWFQVF
4.57 n.d. n.d. | EGDSLRYYYAN | GKNNRKS | SSDDSSGFQVV

The 8 strongest on average among those seen in every replicate, once more:

{"CDR-L1": "EGDSLRYGYAN", "CDR-L2": "GKNNRPS", "CDR-L3": "SSRDSSGFQGY", "replicates, log10 nM": "1.17 0.87 0.34"}
{"CDR-L1": "EGDSLSYAQAN", "CDR-L2": "GKNNRPS", "CDR-L3": "SSRDSSGFQVF", "replicates, log10 nM": "1.14 1.20 0.90"}
{"CDR-L1": "EGDSIRYYIWN", "CDR-L2": "GKNNRPS", "CDR-L3": "SSRDSSGFQVF", "replicates, log10 nM": "1.84 1.57 1.19"}
{"CDR-L1": "EGDNLRYRYAN", "CDR-L2": "GVNNRPS", "CDR-L3": "SSRDSSGFQVF", "replicates, log10 nM": "1.82 1.89 1.55"}
{"CDR-L1": "EGVSLRYYGAN", "CDR-L2": "GKNNRPS", "CDR-L3": "SSRDSSGFQVF", "replicates, log10 nM": "1.90 1.69 1.68"}
{"CDR-L1": "EGDSLRYYYAN", "CDR-L2": "GKNNRPS", "CDR-L3": "SSRDSSGFQHR", "replicates, log10 nM": "1.88 1.86 1.62"}
{"CDR-L1": "EGDSLRYYYAN", "CDR-L2": "GKNNRVS", "CDR-L3": "SCRDSSGFQVF", "replicates, log10 nM": "2.17 2.38 1.58"}
{"CDR-L1": "QGDSLRYYYAN", "CDR-L2": "GKNNRPR", "CDR-L3": "SSRDSSGFQVH", "replicates, log10 nM": "2.24 2.08 1.83"}

Three control strains display no target. For library AAYL52, 28% of the pairings with them gave a signal, with a median of 3.91 and one signal in twenty below 2.90, so weak values seen in few replicates may be background.